Data taken from patent publication US20240116893A1, “Compounds for Disease Treatment” (Duke University, priority 2021, published 2024).

Amino acid sequences for entries named in this document (tags omitted).
UniProt Q9NWZ3, whole entry: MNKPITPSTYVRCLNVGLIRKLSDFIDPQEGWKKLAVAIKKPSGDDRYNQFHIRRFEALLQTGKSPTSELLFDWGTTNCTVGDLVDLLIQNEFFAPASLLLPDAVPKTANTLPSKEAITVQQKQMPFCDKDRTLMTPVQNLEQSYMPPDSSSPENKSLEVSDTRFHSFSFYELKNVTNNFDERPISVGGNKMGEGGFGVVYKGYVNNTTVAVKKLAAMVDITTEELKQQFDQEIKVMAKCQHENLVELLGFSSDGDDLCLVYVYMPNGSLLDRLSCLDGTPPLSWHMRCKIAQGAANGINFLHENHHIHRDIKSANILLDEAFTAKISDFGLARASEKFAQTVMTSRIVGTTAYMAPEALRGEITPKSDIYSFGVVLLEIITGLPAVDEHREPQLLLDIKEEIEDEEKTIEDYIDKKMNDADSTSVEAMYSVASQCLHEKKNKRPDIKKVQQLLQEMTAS

Target: IRAK4 (Homo sapiens (Human), UniProt Q9NWZ3)
Experiment: IRAK4 kinase inhibition IC50 (TABLE 1; FIG. 1B selectivity screening)
Assay type: biochemical
Settings: selectivity for TAK1 over IRAK4

Row | SMILES | Ratio IC50 (IRAK4)/IC50 (TAK1)
1 | CCCn1c(=NC(=O)c2cccc(C(N)=O)c2)[nH]c2cc(CN3CCCCC3)ccc21 | 2
2 | CCCn1c(=NC(=O)c2cccc(C(N)=O)c2)[nH]c2ccc(CN(C)C)cc21 | 35
